Conditions: mice

With Nc1nc(N)c2c(-c3ccccc3)c(-c3ccc(F)cc3)[nH]c2n1 [35b, 6-(4-Fluorophenyl)-5-phenyl-7H-pyrrolo[2,3-d]pyrimidine-2,4-diamine] the “MTD study outcome at 10 mg/kg” value (10 mg/kg) was “no clinical signs”, the “MTD study outcome at 30 mg/kg” value (30 mg/kg) was “some transient clinical signs” and the “MTD study outcome at 100 mg/kg” value (100 mg/kg) was “severe toxicity and fatality”.
